Experimental data: PMC12737281, “In Situ Evaluation of the GSH Depletion Ability of Various Alkylating Agents and the Protective Effect of Several Active Thiol Compounds Based on High-Content Cell Analysis” (2025)

Tested on: intracellular GSH in HaCaT cells
Settings: HaCaT cells co-incubated with 10 μM NEM for 24 h

CCN1C(=O)C=CC1=O
change of mBCL fluorescence intensity (intracellular GSH): significant decrease in fluorescence intensity
